# ChEMBL document CHEMBL4342476, “Identification of RIPK3 Type II Inhibitors Using High-Throughput Mechanistic Studies in Hit Triage” (ACS Med Chem Lett, 2020)
# By UniProt entry, the sequences of proteins in these tests, tags left out. Where a name states a change or a piece, a line headed by the entry shows the natural chain unless it says otherwise.
# UniProt P08581: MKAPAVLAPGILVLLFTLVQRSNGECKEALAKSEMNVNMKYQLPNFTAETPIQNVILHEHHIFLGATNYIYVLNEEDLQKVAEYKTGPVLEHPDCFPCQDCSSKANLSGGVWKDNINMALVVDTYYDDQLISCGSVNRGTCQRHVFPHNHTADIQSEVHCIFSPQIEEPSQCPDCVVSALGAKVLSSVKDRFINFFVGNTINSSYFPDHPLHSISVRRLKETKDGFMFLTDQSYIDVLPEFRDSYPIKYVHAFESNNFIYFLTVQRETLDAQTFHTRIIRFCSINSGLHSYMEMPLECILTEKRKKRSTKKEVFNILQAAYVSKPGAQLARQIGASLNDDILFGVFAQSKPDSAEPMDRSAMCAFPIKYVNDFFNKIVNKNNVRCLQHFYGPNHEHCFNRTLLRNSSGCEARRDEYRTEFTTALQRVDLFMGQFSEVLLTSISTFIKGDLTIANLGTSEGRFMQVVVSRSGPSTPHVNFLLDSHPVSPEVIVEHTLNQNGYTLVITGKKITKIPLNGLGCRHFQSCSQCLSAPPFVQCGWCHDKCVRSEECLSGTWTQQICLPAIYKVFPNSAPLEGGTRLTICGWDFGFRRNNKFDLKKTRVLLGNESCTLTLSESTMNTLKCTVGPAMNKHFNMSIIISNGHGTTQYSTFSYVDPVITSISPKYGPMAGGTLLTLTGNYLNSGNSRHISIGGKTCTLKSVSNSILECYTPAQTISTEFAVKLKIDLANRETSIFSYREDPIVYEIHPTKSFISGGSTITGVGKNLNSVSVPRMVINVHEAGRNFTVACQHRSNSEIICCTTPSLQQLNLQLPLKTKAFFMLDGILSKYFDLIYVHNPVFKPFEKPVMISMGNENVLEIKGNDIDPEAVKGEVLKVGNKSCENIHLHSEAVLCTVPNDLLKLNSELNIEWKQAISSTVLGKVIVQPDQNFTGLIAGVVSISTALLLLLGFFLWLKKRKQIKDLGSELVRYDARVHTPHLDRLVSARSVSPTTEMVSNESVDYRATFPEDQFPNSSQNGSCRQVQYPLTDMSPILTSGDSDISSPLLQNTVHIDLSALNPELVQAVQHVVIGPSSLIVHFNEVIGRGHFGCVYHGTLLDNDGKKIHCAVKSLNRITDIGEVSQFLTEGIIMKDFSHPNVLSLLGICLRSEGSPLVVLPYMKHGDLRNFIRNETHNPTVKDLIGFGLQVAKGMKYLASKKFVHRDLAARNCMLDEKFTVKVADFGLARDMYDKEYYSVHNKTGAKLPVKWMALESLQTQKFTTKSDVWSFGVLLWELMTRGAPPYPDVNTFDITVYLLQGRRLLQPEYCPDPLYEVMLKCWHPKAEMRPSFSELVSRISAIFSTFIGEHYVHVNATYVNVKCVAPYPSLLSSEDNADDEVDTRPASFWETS
# Tests used:
# [1] = target: Hepatocyte growth factor receptor (Homo sapiens, UniProt P08581); test: Displacement of fluorescein labeled ATP probe from His/GST-tagged c-Met (unknown origin) incubated for 60 mins by HTRF assay
# [2] = species on record: Homo sapiens; test: Selectivity index, ratio of IC50 for displacement of fluorescein labeled ATP probe from His/GST-tagged RIPK1 (unknown origin) incubated for 60 mins by HTRF assay to IC50 for displacement of fluorescein labeled ATP probe from full length His/GST-tagged RIPK3 (unknown origin) incubated for 60 mins by HTRF assay
smiles,measurement,setting,value
O=C(Nc1ccc(Oc2ccnc3[nH]ccc23)c(F)c1)c1cccn(-c2ccc(F)cc2)c1=O,IC50,[1],5.7 nM
same,Ratio IC50,[2],64
